In US20120165309A1, “HETERO RING DERIVATIVE” (Astellas Pharma Inc., priority 2009, published 2012) one finds IC50 data, which are given here for one molecule.

Protein sequences, listed by entry. Tags and fused reporters are not part of them. Lines headed by an entry give the natural chain unless they say otherwise; changes in a name come on top.
UniProt O00329: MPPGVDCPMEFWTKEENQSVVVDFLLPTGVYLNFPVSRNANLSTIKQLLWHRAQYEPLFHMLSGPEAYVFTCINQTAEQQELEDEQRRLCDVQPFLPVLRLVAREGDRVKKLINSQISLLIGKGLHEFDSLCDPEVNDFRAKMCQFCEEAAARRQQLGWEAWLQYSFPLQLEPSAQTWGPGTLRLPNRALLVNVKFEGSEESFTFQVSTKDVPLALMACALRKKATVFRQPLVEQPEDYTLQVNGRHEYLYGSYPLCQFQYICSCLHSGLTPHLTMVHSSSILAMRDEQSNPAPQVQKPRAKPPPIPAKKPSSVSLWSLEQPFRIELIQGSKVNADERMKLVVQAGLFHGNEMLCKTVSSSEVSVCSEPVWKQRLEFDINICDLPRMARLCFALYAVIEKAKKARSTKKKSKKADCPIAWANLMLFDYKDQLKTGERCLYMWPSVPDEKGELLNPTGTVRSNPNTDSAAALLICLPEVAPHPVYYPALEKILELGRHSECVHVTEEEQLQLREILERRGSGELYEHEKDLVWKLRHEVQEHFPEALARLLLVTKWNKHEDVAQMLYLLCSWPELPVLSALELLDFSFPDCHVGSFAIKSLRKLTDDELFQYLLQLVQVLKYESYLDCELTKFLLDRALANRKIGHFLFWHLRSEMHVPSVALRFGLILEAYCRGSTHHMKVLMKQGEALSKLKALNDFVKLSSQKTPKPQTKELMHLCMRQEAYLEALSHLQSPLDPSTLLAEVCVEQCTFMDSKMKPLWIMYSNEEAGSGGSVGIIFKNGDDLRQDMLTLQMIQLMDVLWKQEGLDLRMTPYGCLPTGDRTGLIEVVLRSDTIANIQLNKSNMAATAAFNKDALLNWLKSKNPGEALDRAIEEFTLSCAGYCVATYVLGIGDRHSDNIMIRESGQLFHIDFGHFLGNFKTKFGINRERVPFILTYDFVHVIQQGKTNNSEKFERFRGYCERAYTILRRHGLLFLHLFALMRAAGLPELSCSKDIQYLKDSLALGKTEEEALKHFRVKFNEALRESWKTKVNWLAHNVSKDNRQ

This experiment has as its target T1, human PI3Kδ enzyme (Homo sapiens, UniProt O00329).
T1 construct: purchased Millipore Corporation 14-604
The experiment can be described thus: PI3Kδ enzyme inhibitory activity (PI3-Kinase HTRF Assay kit). Format: biochemical. On the procedure:
1. PI3Kδ Enzyme Inhibitory Activity
For the experiment, a PI3-Kinase HTRF Assay kit (Millipore Corporation, Catalogue No. 33-016) and a human PI3Kδ enzyme (Millipore Corporation, Catalogue No. 14-604) were used. The measurement method was in accordance with the appended instructions. The overview thereof is as follows.
PI3Kδ (10 ng/well), phosphatidylinositol-4,5-bisphosphate (10 μM), ATP (30 μM), and the test compound were mixed in a 384-well plate (total 20 μL), and incubated at room temperature for 30 minutes. EDTA and biotinylated phosphatidylinositol-3,4,5-triphosphate were added thereto to stop the reaction. Thereafter, a Europium labeled anti-GST antibody, a GST bond GRP1 PH domain, and streptavidin-APC were added thereto, followed by incubation overnight. An HTRF ratio was measured using an HTRF plate reader. The IC50 value of the compound was calculated, taking the inhibition rate without addition of the enzyme as 100% and the inhibition rate without addition of the test compound as 0%, by means of a logistic method.
In the Table, Ex represents Example Compound No. as described later, PI3Kδ represents the IC50 value (nM) of a PI3Kδ enzyme inhibitory activity, and PI3Kα represents the IC50 value (nM) of a PI3Kα enzyme inhibitory activity.

As to `CN(C)CC(=O)N[C@H]1CC[C@H](Nc2nc(N3CCOCC3)nc(-n3c(C(F)F)nc4ccccc43)n2)CC1` [Example 40], the IC50 was determined as 3.6 nM.
